Experimental data: published antibiotic growth screens (doi:10.1038/s41589-023-01349-8)
Some of the results follow.

test system: A. baumannii ATCC 17978; assay: relative growth (fraction of control); higher = less inhibition; conditions: 50 µM

| SMILES | relative growth |
| --- | --- |
| COCCCNC(=O)[C@@]1(Sc2ccc(C)cc2)CC(=O)N(C2CCCCC2)[C@@H]1c1ccc(CO)cc1I | 0.783 |
| Cl.c1ccc2c(c1)CCCC2C1=NCCN1 (stereo not given) | 0.962 |
| COCCOC(=O)N1C(=O)[C@@]2(c3cc(C#CCCO)ccc31)[C@H](c1ccccc1OCCO)N1[C@H](c3ccccc3)[C@H](c3ccccc3)OC(=O)[C@H]1[C@@H]2C(=O)N1CCc2cc(OC)c(OC)cc2C1 | 1.18 |
| Cc1[nH]c(=O)[nH]c(=O)c1S(=O)(=O)N1CCN(c2ccccc2)CC1 | 0.982 |
| CN(C)C(=O)C[C@H]1C=C[C@@H](NC(=O)C2CC2)[C@H](CO)O1 | 1.13 |
| O=C(CN1CCOCC1)NCC[C@@H]1CC[C@H](NS(=O)(=O)c2ccc(Cl)cc2)[C@H](CO)O1 | 1.1 |
| O=C(N/N=C/[C@H](O)[C@H](O)[C@@H](O)[C@@H](O)CO)c1ccccn1 | 1.03 |
| COc1cccc(S(=O)(=O)Nc2ccc3c(c2)OC[C@@H](C)N(C(=O)Cc2cccnc2)C[C@H](C)[C@@H](OC)CN(C)C3=O)c1 | 1.01 |
| Cn1cnc(S(=O)(=O)N[C@@H]2C=C[C@@H](CC(=O)NCC3CC3)O[C@@H]2CO)c1 | 0.969 |
| CS(=O)(=O)N1CC(=O)Nc2ccccc21 | 1.1 |
| O=C(CNC(=O)c1ccc(Cl)cc1)NO | 0.96 |
| CC(C)(N)c1ccccc1Br | 1.01 |
| Cc1nc(-c2sc3ccc(Cl)cc3c2C)cs1 | 1.02 |
| COc1ccc([C@H]([C@H](Cc2ccccc2)OC(C)=O)N(CC#C[C@@H](O)c2ccccc2)[C@@H](Cc2ccccc2)C(OC)OC)cc1 | 1.07 |
| Cl.NC(Cc1ccc(O)cc1)C(=O)O (stereo not given) | 1.16 |
| Cl.NCCS | 1.11 |
| CN(CP(=O)(O)CN1CCOCC1)S(C)(=O)=O | 0.975 |
| C[N+](C)(C)CCO.Cn1c(=O)c2[n-]cnc2n(C)c1=O | 0.873 |
| CC(=O)Oc1cccc(O)c1 | 1.04 |
| Cc1ccc(S(=O)(=O)N2C[C@@H](O)COC[C@@H]3O[C@H](CC(=O)NCc4ccc5c(c4)OCO5)CC[C@H]32)cc1 | 0.893 |
| Cc1ccc(S(=O)(=O)N[C@@H]2CC[C@@H](CC(=O)N3CCC(Cc4ccccc4)CC3)O[C@@H]2CO)cc1 | 0.709 |
| COCCOC(=O)N1C(=O)[C@@]2(c3ccccc31)[C@H](c1ccc(OCCO)cc1)N1[C@H](c3ccccc3)[C@H](c3ccccc3)OC(=O)[C@H]1[C@@H]2C(=O)N1CCc2cc(OC)c(OC)cc2C1 | 0.908 |
| C=CC[C@H](CC(=O)N(CCO)Cc1ccccc1)C(=O)N[C@H](COC(=O)[C@@H](CC=C)Cc1ccc(F)cc1)C(C)(C)C | 1.07 |
| O=C1C[C@]2(c3ccc([N+](=O)[O-])cc3)C(=O)N(CCN3CCOCC3)c3cc(CO)ccc3[C@H]2N1C1CCCCC1 | 1.11 |
| C=CCOC(=O)[C@H]1[C@@H]2C(=O)O[C@@H](c3ccccc3)[C@@H](c3ccccc3)N2[C@@H](c2ccc(OCCOC(=O)[C@H]3C[C@H]4C(=O)N[C@@H](CCCCNC(C)=O)C(=O)N4[C@H]3c3cccc(OCCO)c3)cc2)[C@]12C(=O)Nc1ccc(I)cc12 | 1.34 |
| C=CCn1c(O)c(C#N)c(C)cc1=O | 0.969 |
| NC1=NC(=O)C[C@H](Cc2ccccc2)N1 | 1.05 |

| SMILES | relative growth |
| --- | --- |
| CC(C)NC(=O)N(C)C[C@H]1OCc2cn(nn2)CCCC(=O)N([C@@H](C)CO)C[C@@H]1C | 0.988 |
| C=C(C)CC1(N[C@H](C)c2ccccc2)CCCCC1 | 0.823 |
| CCS(=O)(=O)NCCc1csc(C)n1 | 1.12 |
| CN1CCN(C(=O)C[C@@H]2CC[C@H]3[C@@H](COC[C@@H](O)CN3C(=O)Nc3cc(Cl)cc(Cl)c3)O2)CC1 | 0.807 |
| C=CCCCCCCCCCCCC(O)CC(O)CO (stereo not given) | 1.25 |
| COc1ccccc1CNC(=O)C[C@H]1C[C@@H]2c3cc(NC(=O)NC4CCCC4)ccc3O[C@@H]2[C@@H](CO)O1 | 0.951 |
| CC(C)NC[C@@H](O)COc1cccc2ccccc12.Cl | 0.874 |
| CCCCn1c(SCC(N)=O)nc2c1c(=O)n(C)c(=O)n2C | 1.13 |
| COc1cccc(C#Cc2ccc3c(c2)O[C@@H](CN(C)C(C)=O)[C@@H](C)CN([C@@H](C)CO)S3(=O)=O)c1 | 0.977 |
| COc1cccc(S(=O)(=O)N[C@@H]2CC[C@@H](CCn3cc(-c4ccccc4OC)nn3)O[C@H]2CO)c1 | 0.872 |
| Cn1c(=O)c2c(ncn2C[C@@H](O)COc2ccccc2)n(C)c1=O | 1.17 |
| C[C@@H]1CN([C@@H](C)CO)C(=O)c2cc(C#CCN(C)C)cnc2O[C@@H]1CN(C)C(=O)CN1CCOCC1 | 1.15 |
| CC1(C)OC(=O)NC1=O | 1.16 |
| O=C(C[C@H]1CC[C@@H]2[C@H](COC[C@H](O)CN2S(=O)(=O)c2ccc(F)cc2)O1)N[C@@H]1CCN(Cc2ccccc2)C1 | 1.15 |
| CC1=NCCN1C(=O)[C@@H](N)CC(C)C | 1.01 |
| Cc1ccccc1NC(=N)N=C(N)N | 0.927 |
| CCC1OC(=O)[C@H](C)C(=O)[C@H](C)[C@@H](OC2O[C@H](C)C[C@H](N(C)C)[C@H]2O)[C@](C)(OC)C[C@@H](C)C(=O)[C@@H](C)[C@@H]2N(CCCCn3cnc(-c4cccnc4)c3)C(=O)O[C@]12C (stereo not given in full) | 0.146 |
| COc1ccc(NS(=O)(=O)c2ccc(N)cc2)nn1 | 1.05 |
| Nc1ccc(C(=O)NCC(=O)O)cc1 | 1.15 |
| C=C(NC(=O)C(=C)NC(=O)c1csc(C2=NC3c4csc(n4)C4NC(=O)c5csc(n5)C(C(C)(O)C(C)O)NC(=O)C5CSC(=N5)/C(=C\C)NC(=O)C(C(C)O)NC(=O)c5csc(n5)C3(CC2)NC(=O)C(C)NC(=O)C(=C)NC(=O)C(C)NC(=O)C(C(C)CC)NC2C=Cc3c(C(C)O)cc(nc3C2O)C(=O)OC4C)n1)C(N)=O (stereo not given) | 0.989 |
| O=C(C[C@@H]1CC[C@@H](NC(=O)CN2CCOCC2)[C@@H](CO)O1)NC1CCC1 | 1.28 |
| Nc1ncnc2c1ncn2[C@H]1O[C@@H](CO)[C@H](O)[C@@H]1O | 1.09 |
| CC(C)C[C@@H](NS(=O)(=O)c1ccc2[nH]c(=O)c(=O)[nH]c2c1)C(=O)O | 1.16 |
| Cl.NCCCC(=O)O [gamma-AMINOBUTYRIC ACID HYDROCHLORIDE] | 0.953 |
| COCC#Cc1ccc2c(c1)O[C@@H](CN(C)C(=O)C1CCCCC1)[C@@H](C)CN([C@@H](C)CO)S2(=O)=O | 0.828 |
| O=C(C[C@H]1C=C[C@H](NC(=O)CN2CCOCC2)[C@@H](CO)O1)NCCc1ccccc1 | 1.07 |
| OCCN1CCN(CCCN2c3ccccc3Sc3ccc(Cl)cc32)CC1 | 0.804 |

| SMILES | relative growth |
| --- | --- |
| NC(=O)CCN1C(=O)c2ccccc2C1=O | 1.06 |
| C[C@@H]1CN([C@@H](C)CO)S(=O)(=O)c2ccc(C#C[C@@H](C)O)cc2O[C@H]1CN(C)C(=O)CN(C)C | 1.04 |
| COC(=O)C(CC#Cc1ccc2c(c1)[C@]1(C(=O)N2)[C@H](c2ccccc2OCCO)N2[C@H](c3ccccc3)[C@H](c3ccccc3)OC(=O)[C@H]2[C@@H]1C(=O)Nc1nc2ccccc2s1)C(=O)OC | 1.03 |
| Cc1cc(=O)n(CCO)c(=O)[nH]1 | 0.923 |
| Nc1ccc(S(=O)(=O)c2ccc(N)cc2)cc1 | 1.04 |
| CN(C)C(=O)C[C@@H]1CC[C@@H]2[C@H](COC[C@@H](O)CN2S(=O)(=O)c2ccccc2)O1 | 1.06 |
| CO[C@@H]1CN(C)C(=O)c2cc(NS(C)(=O)=O)ccc2OC[C@H](C)N(C(=O)C2CCOCC2)C[C@@H]1C | 1.19 |
| O=C(O)[C@H]1CCCC[C@@H]1C(=O)N1CCOCC1 | 1.01 |
| OC[C@H]1O[C@@H](Oc2ccc(O)cc2)[C@H](O)[C@@H](O)[C@@H]1O | 0.987 |
| COc1cc(/C=C/C(=O)O)cc(OC)c1OC | 0.963 |
| C=CCNC(=O)[C@@H]1[C@H]2C(=O)O[C@H](c3ccccc3)[C@H](c3ccccc3)N2[C@H](c2ccccc2OCCO)[C@@]12C(=O)Nc1ccc(C#CC3=CCCCC3)cc12 | 1.12 |
| CCCCC(=O)N(Cc1ccc(-c2ccccc2-c2nn[nH]n2)cc1)[C@H](C(=O)O)C(C)C | 1.07 |
| C[C@H]1CN([C@@H](C)CO)S(=O)(=O)c2ccc(/C=C/c3ccccc3)cc2O[C@@H]1CN(C)C(=O)CN1CCOCC1 | 0.864 |
| C[C@@H]1CN([C@@H](C)CO)S(=O)(=O)c2ccc(Br)cc2O[C@H]1CN(C)S(=O)(=O)c1ccccc1 | 0.911 |
| O=C(C[C@@H]1CC[C@@H](NS(=O)(=O)c2ccc(F)cc2)[C@@H](CO)O1)N1CCC(Cc2ccccc2)CC1 | 0.829 |
| O=C(C[C@H]1C[C@H]2c3cc(NC(=O)c4cccnc4)ccc3O[C@H]2[C@@H](CO)O1)NCc1cc(F)ccc1F | 0.974 |
| O=C1c2ccccc2[C@@]2(Cc3ccccc3N(CCN3CCOCC3)C2=O)[C@H](c2ccc(CO)cc2)N1Cc1ccccc1Cl | 0.952 |
| Nc1ccc(C(=O)N2CCOCC2)cc1 | 1.12 |
| O=C(CN1CCOCC1)N[C@@H]1CC[C@@H](CCNS(=O)(=O)c2ccccc2F)O[C@H]1CO | 1.28 |
| O=C(C[C@H]1CC[C@H]2[C@@H](COC[C@@H](O)CN2Cc2ccccc2F)O1)N[C@H]1CCN(Cc2ccccc2)C1 | 0.936 |
| CO[C@H]1CN(C)C(=O)c2cc(NS(C)(=O)=O)ccc2OC[C@H](C)N(C(=O)c2ccc3c(c2)OCO3)C[C@@H]1C | 1.16 |
| Cc1ccc(-c2cnc(-c3ccc(Br)cc3)o2)cc1 | 1.07 |
| C[C@H]1[C@H]([Si](C)(C)F)[C@@H](CCO)O[C@]12C(=O)N(Cc1cccc(N3C(=O)COc4ccccc43)c1)c1ccccc12 | 0.89 |
| CN(C)CCOC(c1ccc(Cl)cc1)c1ccccn1.O=C(O)/C=C\C(=O)O (stereo not given) | 0.849 |
| COC(=O)[C@H]1C2C(=O)N(C3CC3)C[C@]23C=C[C@H]1O3 (stereo not given in full) | 0.958 |
| COc1ccccc1CN1C(=O)c2ccccc2[C@@]2(Cc3ccccc3N(CCCN(C)C)C2=O)[C@@H]1c1ccc(CO)cc1 | 1.04 |
